Literature values in patent publication US20240166646A1, “1H-PYRROLO[2,3-B]PYRIDINE DERIVATIVES AS BCL-2 INHIBITORS FOR THE TREATMENT OF NEOPLASTIC AND AUTOIMMUNE DISEASES” (Newave Pharmaceutical Inc., priority 2020, published 2024).

The chains behind the UniProt entries cited, without tags or fusion partners.
UniProt P10415, whole entry: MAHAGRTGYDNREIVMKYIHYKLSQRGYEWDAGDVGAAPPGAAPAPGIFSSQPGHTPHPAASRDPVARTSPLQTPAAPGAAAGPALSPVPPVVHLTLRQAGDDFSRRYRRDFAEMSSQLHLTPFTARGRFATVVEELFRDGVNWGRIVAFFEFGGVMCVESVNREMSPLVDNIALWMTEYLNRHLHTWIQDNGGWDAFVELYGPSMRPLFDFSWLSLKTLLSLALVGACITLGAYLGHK

Molecular target: Bcl-2 (Homo sapiens (Human), UniProt P10415)
Conditions: cited from earlier work

Question: For `CC1(C)CCC(c2ccc(Cl)cc2)=C(CN2CCN(c3ccc(C(=O)NS(=O)(=O)c4ccc(N[C@H](CCN5CCOCC5)CSc5ccccc5)c(S(=O)(=O)C(F)(F)F)c4)cc3)CC2)C1` [ABT-263], which Ki is on record?
Answer: ≤ 1 nM
